## Binding of CDR-mutated scFvs to a peptide of the spike HR2 region

All variants were tested on one target, the spike HR2 peptide PDVDLGDISGINAS (SARS-CoV-2).

The variants keep the light chain, the linker and the frameworks of Ab-91 (scFv order VL, a 15-residue (Gly4Ser)3 linker, VH).
VL: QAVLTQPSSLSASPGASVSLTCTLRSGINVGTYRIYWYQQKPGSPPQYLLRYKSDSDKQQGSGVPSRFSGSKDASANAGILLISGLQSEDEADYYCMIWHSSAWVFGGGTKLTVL
VH: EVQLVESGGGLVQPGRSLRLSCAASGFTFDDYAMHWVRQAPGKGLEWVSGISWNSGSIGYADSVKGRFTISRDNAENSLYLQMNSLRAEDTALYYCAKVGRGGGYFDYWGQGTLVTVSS

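Phage display of a naive human antibody library on the peptide gave the parent. Variants in AAYL51 differ from the parent at up to three CDR positions; double and triple changes were sampled at random. The assay is AlphaSeq: two haploid yeast populations carry antibody and antigen on their surface. Binding brings cells together so that they mate, and sequencing counts the barcode pairs among the diploids. A regression on co-assayed BCL2-family reference pairs converts the normalised counts of each replicate to an apparent Kd. Mating was done three times.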

The parent's heavy chain CDRs are GFTFDDYAMH, GISWNSGSIGYADSVK, VGRGGGYFDY; each variant's own CDRs replace them letter for letter. Every variant below is changed at G100 of the VH (sequential numbering). Affinities are written as log10 Kd with Kd in nM; a lower number is a better binder. A mean of the replicates is given; it leaves out those without a signal. "nd" marks a missing value. The strain was present, yet no cells mated with the target were sequenced in any replicate, which points to weak or no binding. Background: pairings of library AAYL51 with three empty control strains gave a value in 21% of cases (median 4.54, 5th percentile 3.26). Values in that range, when seen in few replicates, are hard to tell from nonspecific mating. The control count says in how many pairings with the empty strains this scFv gave a signal.

| CDR-H1 | CDR-H2 | CDR-H3 | mean, log10 nM | replicates with signal | control signals |
|---|---|---|---|---|---|
| GFTFDDYAMH | GIFWNSGSIGYAASVK | VLRGGGYFDY | nd | 0 of 3 | 2 of 9 |
| GFTIDDYAMH | RISWNSGSIGYADSVK | VTRGGGYFDY | 4.37 | 2 of 3 | 2 of 9 |
| GRTFDTYAMH | GISWNSGSIGYADSVK | VARGGGYFDY | 4.96 | 2 of 3 | 2 of 9 |
| GFTFDDYAMH | GISWNSGSIGYADSDK | VADGGGYFDY | 3.81 | 1 of 3 | 0 of 9 |
| GFTFDDYAMH | GISWKSGSIGYADSVK | VDRGGGMFDY | 4.80 | 3 of 3 | 2 of 9 |
| GFTFDDYAMH | GIAWNSGSIGYADSFK | VLRGGGYFDY | nd | 0 of 3 | 0 of 9 |
| GFTFDDYAMH | GISWNSGSIGYADSDK | VMRGGGYFEY | nd | 0 of 3 | 1 of 9 |
| GFTFDDYAMH | PISWNSGSIGIADSVK | VTRGGGYFDY | nd | 0 of 3 | 2 of 9 |
| GFTFDDYAMH | GISWNSNSIGYADSVK | VWRRGGYFDY | 5.02 | 2 of 3 | 5 of 9 |
| GFTFDDYAMA | GISWNSGSIGYADSVK | VTRRGGYFDY | 5.87 | 1 of 3 | 5 of 9 |
| GRTFDDYAMH | GISWNSGSIGYADSVK | VNRGGGYFLY | nd | 0 of 3 | 0 of 9 |
| GFTFDDYAMH | GISWPSGSIGYADSVK | VPPGGGYFDY | 5.04 | 2 of 3 | 7 of 9 |
| GFTFDDYAMH | GISWNSGSIGYADSVK | VIRGGRYFDY | 5.49 | 2 of 3 | 8 of 9 |
| GFTFDDYAMH | GISWNSGSIGYADSVK | VPWGGGYFDY | nd | 0 of 3 | 0 of 9 |
| GFTFDDYAMH | GISWNSGSIGYADSVK | VTRGTGYFDY | 5.18 | 3 of 3 | 6 of 9 |
| GFTFDDCAMH | GISTNSGSIGYADSVK | VVRGGGYFDY | 5.08 | 2 of 3 | 3 of 9 |
| TFTFDDYAMC | GISWNSGSIGYADSVK | VQRGGGYFDY | nd | 0 of 3 | 0 of 9 |
| GFTFDDYAMH | GISWTSGSIGYADSVL | VMRGGGYFDY | nd | 0 of 3 | 1 of 9 |
| GFTFDEYAMH | GISWNSGSIGYADSVK | VPRGGGYFDA | 4.43 | 1 of 3 | 5 of 9 |
| GFTFDDYAMH | GISWDSGSIGYADSVK | VYRGGGYFDP | nd | 0 of 3 | 0 of 9 |
| GFTFDDYAIH | GISWNSGTIGYADSVK | VTRGGGYFDY | nd | 0 of 3 | 1 of 9 |
| GFTFDDYAMH | GKSWNSGSIGYADSVK | VYRGGPYFDY | nd | 0 of 3 | 0 of 9 |
| GFTFDDYAMH | GIMWNSGSIGYADSVK | VNRGGGYFDY | 3.74 | 3 of 3 | 6 of 9 |
| GFTFDDYAMH | GASWNSGHIGYADSVK | VDRGGGYFDY | nd | 0 of 3 | 1 of 9 |
| GFTFDDYAMH | GISWNSGSIGYADSKC | VWRGGGYFDY | nd | 0 of 3 | 1 of 9 |
| GFTFDDYAMH | GISWNSGSIHYADSVK | VQRYGGYFDY | nd | 0 of 3 | 0 of 9 |
| GFSFDCYAMH | GISWNSGSIGYADSVK | VKRGGGYFDY | 5.82 | 1 of 3 | 4 of 9 |
| GFTFDDYAMH | GISWNSGSIGYADSVK | VWIGGGYFDI | 1.89 | 3 of 3 | 1 of 9 |
| GFTFDDYAMH | GISWNSGSIGYADSDK | VLRGGGYFDY | nd | 0 of 3 | 1 of 9 |
| GFTFDDYANH | GISWNSGSIGHADSVK | VWRGGGYFDY | nd | 0 of 3 | 1 of 9 |
| GFTFDDYAMH | GISWNSGSIGYADSVP | VIRGGVYFDY | 4.86 | 1 of 3 | 0 of 9 |
| GFTFDDYAMH | GISWNSGSIGYADSVK | VFRGGGYFDY | 1.75 | 3 of 3 | 0 of 9 |
| GFTFDDYAMH | GISWNSGSIGYADSCK | VRRGGGYFAY | 5.73 | 1 of 3 | 3 of 9 |
| GFTFDDYAMH | GISTNSGSIGYADSVK | VVRGGGYFDR | 4.79 | 3 of 3 | 3 of 9 |
| GFTFDDYAMA | GRSWNSGSIGYADSVK | VLRGGGYFDY | 5.24 | 2 of 3 | 0 of 9 |
| GFTFDDYAMH | GISWNSGSIGYADSVQ | VMRGGGYFDY | nd | 0 of 3 | 2 of 9 |
| GFTFDDYAMH | GISWNSGSIGMADSVK | VQRGGGNFDY | 6.48 | 1 of 3 | 5 of 9 |
| GCTFDYYAMH | GISWNSGSIGYADSVK | VIRGGGYFDY | nd | 0 of 3 | 1 of 9 |
| GFTFDDYAMH | GISWNVGSIGYADSVK | VQRGGGYFDE | 3.39 | 1 of 3 | 3 of 9 |
| GFTFDDYAMH | GISWNSGSGGYADSVK | VHRGGRYFDY | nd | 0 of 3 | 0 of 9 |
| GFTFGDYAMH | GISWNSGSDGYADSVK | VHRGGGYFDY | 0.92 | 3 of 3 | 6 of 9 |
| GFTFDDWAMH | GISWNSGSIGYADSVK | VRRGGGSFDY | 6.18 | 1 of 3 | 1 of 9 |
| GFTFDDYAMH | GISWNYGQIGYADSVK | VHRGGGYFDY | nd | 0 of 3 | 1 of 9 |
| GFWFDDYAEH | GISWNSGSIGYADSVK | VKRGGGYFDY | nd | 0 of 3 | 0 of 9 |
| GFTFDDYAMH | GISWNSGSAGYADSVK | VIRGGGYFDN | nd | 0 of 3 | 0 of 9 |
| GFTFDDYAPH | GISWNSGSQGYADSVK | VYRGGGYFDY | 4.37 | 3 of 3 | 1 of 9 |
| GFTFDDYIMH | GISWNSGSINYADSVK | VARGGGYFDY | nd | 0 of 3 | 0 of 9 |
| GFTFDDYAMH | GIGWNSGSIGYADSDK | VARGGGYFDY | 5.55 | 3 of 3 | 6 of 9 |
| GFTFRDYAMH | GISWNLGSIGYADSVK | VPRGGGYFDY | 5.73 | 1 of 3 | 3 of 9 |
| HFTFDDYTMH | GISWNSGSIGYADSVK | VSRGGGYFDY | nd | 0 of 3 | 0 of 9 |

Top 6 of the variants detected in all replicates, tightest first:

| CDR-H1 | CDR-H2 | CDR-H3 | mean, log10 nM | replicates with signal | control signals |
|---|---|---|---|---|---|
| GFTFGDYAMH | GISWNSGSDGYADSVK | VHRGGGYFDY | 0.92 | 3 of 3 | 6 of 9 |
| GFTFDDYAMH | GISWNSGSIGYADSVK | VFRGGGYFDY | 1.75 | 3 of 3 | 0 of 9 |
| GFTFDDYAMH | GISWNSGSIGYADSVK | VWIGGGYFDI | 1.89 | 3 of 3 | 1 of 9 |
| GFTFDDYAMH | GIMWNSGSIGYADSVK | VNRGGGYFDY | 3.74 | 3 of 3 | 6 of 9 |
| GFTFDDYAPH | GISWNSGSQGYADSVK | VYRGGGYFDY | 4.37 | 3 of 3 | 1 of 9 |
| GFTFDDYAMH | GISTNSGSIGYADSVK | VVRGGGYFDR | 4.79 | 3 of 3 | 3 of 9 |

Values reported by Engelhart et al. 2022, doi:10.1038/s41597-022-01779-4 (FLAb copy).